Source: ChEMBL document CHEMBL1144964, “Inhibition of mandelate racemase by alpha-fluorobenzylphosphonates” (Bioorg Med Chem Lett, 2003)

How the values were obtained:
Pseudomonas putida [1] = test: Michaelis-Menten Km value for the compound towards enzyme affinity for the substrate was determined at pH 7.5
Pseudomonas putida [2] = test: Michaelis-Menten constant for the compound was determined at pH 6.3 for mandelate racemase from Pseudomonas putida

O=P(O)(O)[C@H](F)c1ccccc1
Km (Pseudomonas putida [1]): 930 µM

O=P(O)(O)C(F)(F)c1ccccc1
Km (Pseudomonas putida [2]): 790 µM
